One substance from patent publication US6599892B2, “7-alkylidene cephalosporanic acid derivatives and methods of using the same” (Research Corporation Technologies, Inc., priority 1994, dated 2003) can be followed below.

The experiment has as its target E. coli. W3310 β-lactamase (TEM2) (Escherichia coli, UniProt P62593, Q37K). As to conditions: read-out: IC50 (nM) E. Coli WC3310; 10 minute incubation of enzyme and inhibitor; nitrocefin substrate.

Usually IC50 stands for the concentration that gives 50% inhibition. For the substance “Sodium salt of 7-[(Z)-t-butoxymethylene] cephalosporanic acid sulfone [Compound 7g]”, the IC50 is 5 nM.
